Values quoted from earlier work as cited in paper PMC9539897 (Angewandte Chemie (International Ed. in English), 2022).

By UniProt entry, the sequences of proteins in these tests, tags left out. Residues count along the entry.
UniProt P00748, 373-615 limits assumed: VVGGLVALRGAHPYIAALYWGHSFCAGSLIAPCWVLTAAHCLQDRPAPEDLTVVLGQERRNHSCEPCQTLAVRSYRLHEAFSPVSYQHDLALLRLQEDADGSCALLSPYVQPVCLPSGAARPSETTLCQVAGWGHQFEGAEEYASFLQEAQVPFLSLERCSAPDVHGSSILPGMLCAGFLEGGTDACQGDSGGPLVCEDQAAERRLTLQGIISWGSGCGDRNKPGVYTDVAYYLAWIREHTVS

Molecular target: factor XIIa (FXIIa) (Homo sapiens, UniProt P00748)
Details: read-out: Ki FXIIa

Ki: 0.129 ± 0.009 µM
Substance: Momordica cochinchinensis trypsin inhibitor‐II [cyclic MCoTI‐II]
